Data set [1] deals with mouse sciatic nerves. In words: fluorescence stereoscope (Lumar) imaging of sciatic nerves. Type of data set: in vivo. As to conditions: 7 nmol i.v., 30 min post-injection. The protocol:
Fluorescence Stereoscope Imaging. The Hsp1a-FL fluorescence signal in mouse sciatic nerves was also visualized using a fluorescence stereoscope 30 min after intravenous injection of Hsp1a-FL (7 nmol, 68 μM of Hsp1a-FL in 100 μL of PBS) or PBS (n=3/group). Fluorescence images were obtained using mice with exposed but otherwise intact sciatic nerves. Images were also obtained from excised sciatic nerves and muscle. Imaging was performed in bright field and fluorescence mode, with a 500/20 nm laser excitation and 535/30 emission filter and an exposure time of 200-400 ms.

By UniProt entry, the sequences of proteins in these tests, tags left out.
UniProt Q15858, whole entry: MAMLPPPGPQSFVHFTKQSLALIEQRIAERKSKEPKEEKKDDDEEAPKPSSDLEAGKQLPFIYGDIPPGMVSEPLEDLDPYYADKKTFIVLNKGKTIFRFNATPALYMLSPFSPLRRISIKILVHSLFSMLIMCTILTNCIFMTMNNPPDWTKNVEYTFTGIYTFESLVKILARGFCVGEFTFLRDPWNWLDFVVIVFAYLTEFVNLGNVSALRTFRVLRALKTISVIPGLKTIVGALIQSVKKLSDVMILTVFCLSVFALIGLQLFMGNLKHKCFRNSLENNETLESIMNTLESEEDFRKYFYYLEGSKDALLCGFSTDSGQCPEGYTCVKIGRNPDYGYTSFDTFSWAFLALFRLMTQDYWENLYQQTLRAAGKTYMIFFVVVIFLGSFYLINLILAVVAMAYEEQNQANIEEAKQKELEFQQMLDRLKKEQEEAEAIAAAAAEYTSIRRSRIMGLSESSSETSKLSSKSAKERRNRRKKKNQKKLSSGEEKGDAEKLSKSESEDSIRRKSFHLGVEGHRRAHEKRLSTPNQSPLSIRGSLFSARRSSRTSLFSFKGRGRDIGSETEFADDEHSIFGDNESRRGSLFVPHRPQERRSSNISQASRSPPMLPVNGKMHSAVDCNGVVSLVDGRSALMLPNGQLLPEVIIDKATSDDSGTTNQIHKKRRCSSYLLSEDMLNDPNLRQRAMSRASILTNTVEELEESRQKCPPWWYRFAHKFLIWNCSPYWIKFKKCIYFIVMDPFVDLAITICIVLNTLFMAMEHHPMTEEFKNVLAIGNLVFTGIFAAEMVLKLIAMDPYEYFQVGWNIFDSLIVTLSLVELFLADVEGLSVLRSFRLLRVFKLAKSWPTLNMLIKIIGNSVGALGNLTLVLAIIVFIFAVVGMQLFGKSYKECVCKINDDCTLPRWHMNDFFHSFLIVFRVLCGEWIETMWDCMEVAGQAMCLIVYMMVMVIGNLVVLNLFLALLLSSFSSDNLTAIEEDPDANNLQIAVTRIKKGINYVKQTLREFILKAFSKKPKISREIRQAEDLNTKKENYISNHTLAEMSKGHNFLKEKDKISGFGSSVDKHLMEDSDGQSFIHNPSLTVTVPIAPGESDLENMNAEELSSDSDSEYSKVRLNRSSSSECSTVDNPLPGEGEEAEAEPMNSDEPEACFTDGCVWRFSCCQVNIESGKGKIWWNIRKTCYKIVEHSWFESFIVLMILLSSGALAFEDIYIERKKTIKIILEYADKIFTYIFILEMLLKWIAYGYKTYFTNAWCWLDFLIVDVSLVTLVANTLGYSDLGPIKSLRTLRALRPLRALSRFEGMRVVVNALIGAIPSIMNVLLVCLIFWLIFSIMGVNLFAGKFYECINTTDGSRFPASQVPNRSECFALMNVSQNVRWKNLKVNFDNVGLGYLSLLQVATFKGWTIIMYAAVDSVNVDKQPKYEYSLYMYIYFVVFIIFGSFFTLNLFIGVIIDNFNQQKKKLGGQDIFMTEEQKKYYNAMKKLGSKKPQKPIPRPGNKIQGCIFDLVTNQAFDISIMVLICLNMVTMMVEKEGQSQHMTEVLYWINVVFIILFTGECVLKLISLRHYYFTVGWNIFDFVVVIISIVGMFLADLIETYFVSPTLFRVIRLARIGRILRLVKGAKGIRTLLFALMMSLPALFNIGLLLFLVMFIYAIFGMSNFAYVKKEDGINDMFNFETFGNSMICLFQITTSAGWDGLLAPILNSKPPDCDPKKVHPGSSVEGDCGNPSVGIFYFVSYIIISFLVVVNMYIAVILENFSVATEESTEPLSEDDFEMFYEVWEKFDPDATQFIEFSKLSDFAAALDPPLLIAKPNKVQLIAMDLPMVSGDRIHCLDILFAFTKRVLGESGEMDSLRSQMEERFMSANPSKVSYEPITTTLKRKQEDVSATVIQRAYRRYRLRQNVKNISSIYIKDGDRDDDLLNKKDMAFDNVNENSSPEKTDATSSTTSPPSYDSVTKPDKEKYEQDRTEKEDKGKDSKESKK

For data set [2], the system named is mouse sciatic nerves. The experiment in a line: epifluorescence imaging (IVIS Spectrum) of sciatic nerves and organs 30 min after injection. Type of data set: in vivo. On the procedure: Animal Model. Female athymic nude mice (4-8 week-old, athymic-Nude (outbred) (Stock #: 088; Envigo, USA) were allowed to acclimatize at the Memorial Sloan Kettering Cancer Center (MSK) vivarium for 1 week with ad libitum food and water prior to the experimental procedure. For imaging experiments, animals were sacrificed 30 min post-tail vein injection of Hs1a-FL, Hs1a/Hs1a-FL, Hsp1a-FL, Hsp1a/Hsp1a-FL, or PBS. All animal experiments were performed in accordance with institutional guidelines and approved by the IACUC of MSK, following NIH guidelines for animal welfare.
Epifluorescence Imaging. Animals were intravenously injected with Hsp1a-FL (7 nmol, 68 μM of Hsp1a-FL in 100 μL of PBS, n=9), or Hs1a-FL (4 nmol, 45 μM of Hs1a-FL in 100 μL of PBS, n=3). To assess the specificity of the Hsp1a-FL or Hs1a-FL accumulation, animals were injected with a combination of Hsp1a and Hsp1a-FL (Hsp1a-FL, 68 μM, 7 nmol and Hsp1a 204 μM, 21 nmol in 100 μL PBS, n=9), Hs1a and Hs1a-FL (Hs1a-FL, 45 μM, 4 nmol and Hs1a, 120 μM, 12 nmol in 100 μL PBS, n=3) or PBS (n=9). Animals were sacrificed 30 min post-injection and epifluorescence images obtained. Epifluorescence images of the right sciatic nerve (RSN) and the left sciatic nerve (LSN) were obtained in situ. Epifluorescence of the biodistribution of the peptides in excited RSN, LSN, muscle, heart, kidney, liver, and brain were acquired with IVIS Spectrum (PerkinElmer) using a predefined GFP filterset (e.g., excitation=465/30 nm, emission=520-580 nm) based on the particular fluorophore employed in the compounds. Autofluorescence was removed through spectral unmixing. Semiquantitative analysis of the Hsp1a-FL or Hs1a-FL signal was conducted by measuring the average radiant efficiency (in units of unit [p/s/cm^2/sr]/[μW/cm^2]) in regions of interest (ROIs) that were placed on all resected organs under white light guidance.

Another data set addresses hNav1.7 (Homo sapiens, UniProt Q15858). In words: automated whole-cell patch clamp (QPatch 16X), HEK293-hNav1.7. Type of data set: cell-based. On the set-up: host or cells: HEK293. As to conditions: HEK293 cells stably expressing human channel; read-out: IC50 Nav1.7.

Results on 1 compound are retold here after patent publication US20220089663A1, “PROTEINS AND FLUOROPHORE-CONTAINING COMPOUNDS SELECTIVE FOR NaV1.7” (MEMORIAL SLOAN KETTERING CANCER CENTER, priority 2019, published 2022).

On to `CC[C@H](C)[C@H](NC(=O)[C@H](CCCCN)NC(=O)[C@@H]1CSSC[C@@H]2NC(=O)[C@@H]3CCCN3C(=O)[C@H](CCCNC(=N)N)NC(=O)[C@H](CCC(=O)O)NC(=O)[C@H](CO)NC(=O)[C@H](CC(=O)O)NC(=O)[C@@H]3CSSC[C@H](NC(=O)[C@H](C(C)C)NC(=O)[C@H](CC(C)C)NC(=O)CNC(=O)[C@H](CCC(=O)O)NC(=O)[C@H](CSSC[C@H](NC(=O)[C@@H](N)Cc4ccc(O)cc4)C(=O)N[C@@H](CCC(N)=O)C(=O)N[C@@H](CCCCNC(=O)CCC4=[N+]5C(=Cc6c(C)cc(C)n6[B-]5(F)F)C=C4)C(=O)N[C@@H](Cc4ccccc4)C(=O)N[C@@H](CC(C)C)C(=O)N[C@@H](Cc4c[nH]c5ccccc45)C(=O)N[C@@H]([C@@H](C)O)C(=O)N3)NC2=O)C(=O)N[C@@H](CCCNC(=N)N)C(=O)N[C@@H](CC(C)C)C(=O)N[C@@H](Cc2c[nH]c3ccccc23)C(=O)N1)C(=O)N[C@@H](CC(N)=O)C(N)=O` [Hsp1a-FL], for which the “fluorescence intensity of sciatic nerves” value with mouse sciatic nerves [1] is listed as “(2.6±1.7)×10^4”. In addition, in the data set with mouse sciatic nerves [2] (7 nmol i.v. alone, 30 min post-injection), the “mean radiant efficiency, sciatic nerves ex vivo” value is “(26±0.13)×10^7 [p/s/cm^2/sr]/[μW/cm^2]”. Also, in the data set with mouse sciatic nerves [2] (7 nmol i.v., 30 min), the “fluorescent signal in other organs, including muscle and liver, versus PBS” value was “No significant fluorescent signal”; the “radiant efficiency for the kidneys, with injection” value is 0.1±0.01×10^7 [p/s/cm^2/sr]/[μW/cm^2]. Besides, the “biodistribution in various tissues” value with mouse sciatic nerves [2] (30 minutes after systemic injection) is listed as “limited to the peripheral nervous system”. For the same compound, the “reduction in radiant efficiency by unmodified peptide” value in the data set with mouse sciatic nerves [2] (sciatic nerves ex vivo) is 200 fold. Further, at hNav1.7, the IC50 was found to be 62 nM.
